# Binding of CDR-mutated scFvs to a peptide of the spike HR2 region

From the AlphaSeq antibody data of Engelhart et al. 2022 (doi:10.1038/s41597-022-01779-4), copy in the FLAb collection.

Antigen: PDVDLGDISGINAS, a 14-residue peptide of the SARS-CoV-2 spike HR2 region.

Ab-14 is the parent antibody, in scFv form: VH, then a 15-residue (Gly4Ser)3 linker, then VL. The light chain is unchanged in all variants.
VH: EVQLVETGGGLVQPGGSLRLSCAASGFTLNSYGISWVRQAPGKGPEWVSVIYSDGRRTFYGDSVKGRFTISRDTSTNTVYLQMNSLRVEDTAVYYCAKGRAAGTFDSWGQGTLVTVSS
VL: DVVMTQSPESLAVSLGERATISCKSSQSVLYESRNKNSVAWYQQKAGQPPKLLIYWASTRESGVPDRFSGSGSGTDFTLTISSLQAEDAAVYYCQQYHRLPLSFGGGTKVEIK

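The parent was found by panning a naive human phage display library on the peptide. AAYL49 was designed without a model: most single CDR substitutions and a random sample of double and triple ones. The scFvs were displayed on barcoded MATa yeast, the peptide on MATalpha yeast. After mating in shaken culture at 30 °C for 16 h, diploids were selected and their barcode pairs sequenced. Each replicate has its own calibration line, from reference interactions of the BCL2 family. The assay was run in three technical replicates.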

Changes read parent residue, position, new residue, counted from the first residue of the VH shown. All variants listed here change V50 of the VH, counted from its first residue. Kd is apparent (estimated from mating counts) and averaged on the log scale over replicates with a signal. Smaller is tighter. A pair that was not seen in any replicate is written "nd"; this usually means weak binding, but a binder can also be missed. Entries are sorted by rising average, undetected variants last. Background: pairings of library AAYL49 with three empty control strains gave a value in 15% of cases (median 11 µM, 5th percentile 680 nM). Values in that range, when seen in few replicates, are hard to tell from nonspecific mating. The control count says in how many pairings with the empty strains this scFv gave a signal. For reference, the parent read 4.4 nM as the reference entry and 13 µM (one replicate of three) as a member of this library.

* V50M/I51L/G55D -> 380 nM (1 of 3 replicates; controls 2 of 9)
* F27G/V50L/T104D -> 980 nM (1 of 3 replicates; controls 0 of 9)
* V50Q/S53E/D62A -> 1.2 µM (1 of 3 replicates; controls 2 of 9)
* G26D/V50N/K65I -> 1.8 µM (1 of 3 replicates; controls 1 of 9)
* V50E/A102D -> 1.9 µM (1 of 3 replicates; controls 1 of 9)
* S35D/V50W/D54A -> 3.2 µM (1 of 3 replicates; controls 2 of 9)
* S35C/V50H/Y60V -> 4.7 µM (1 of 3 replicates; controls 0 of 9)
* T28E/V50M/D54V -> 5.0 µM (1 of 3 replicates; controls 5 of 9)
* V50F/S53M/S107D -> 7.7 µM (1 of 3 replicates; controls 1 of 9)
* V50A/K65Q -> 11 µM (2 of 3 replicates; controls 2 of 9)
* V50F/R100V/F105M -> 15 µM (2 of 3 replicates; controls 4 of 9)
* V50Q/Y60M/G61N -> 18 µM (2 of 3 replicates; controls 4 of 9)
* V50H/R57I/G103R -> 18 µM (1 of 3 replicates; controls 1 of 9)
* F27Q/V50G/G61A -> 22 µM (1 of 3 replicates; controls 3 of 9)
* V50F/Y52P/S53R -> 30 µM (1 of 3 replicates; controls 5 of 9)
* V50T/D54I -> 45 µM (2 of 3 replicates; controls 5 of 9)
* V50S/S53C/D62N -> 48 µM (1 of 3 replicates; controls 2 of 9)
* T28C/V50R/R57D -> 48 µM (1 of 3 replicates; controls 3 of 9)
* V50R -> 48 µM (1 of 3 replicates; controls 0 of 9)
* V50C/G103Q/T104W -> 59 µM (1 of 3 replicates; controls 4 of 9)
* V50S/Y60D/G61Y -> 90 µM (2 of 3 replicates; controls 1 of 9)
* V50S/R57K/A102D -> 130 µM (1 of 3 replicates; controls 3 of 9)
* S31V/V50A/S107Q -> 150 µM (1 of 3 replicates; controls 1 of 9)
* N30F/V50R/T104Q -> 470 µM (1 of 3 replicates; controls 0 of 9)
* V50D/D54S/A102P -> 470 µM (1 of 3 replicates; controls 1 of 9)
* I34E/V50K/T104Y -> nd (0 of 3 replicates; controls 3 of 9)
* V50W/Y60D/F105P -> nd (0 of 3 replicates; controls 1 of 9)
* V50C/D62L/T104P -> nd (0 of 3 replicates; controls 0 of 9)
* T28H/V50Y/A102E -> nd (0 of 3 replicates; controls 0 of 9)
* T28F/V50D/R56N -> nd (0 of 3 replicates; controls 1 of 9)
* G33V/V50K/R100C -> nd (0 of 3 replicates; controls 1 of 9)
* G33S/V50S/G61D -> nd (0 of 3 replicates; controls 0 of 9)
* S35G/V50S/D54T -> nd (0 of 3 replicates; controls 3 of 9)
* S35V/V50C -> nd (0 of 3 replicates; controls 1 of 9)
* V50E/F105R -> nd (0 of 3 replicates; controls 0 of 9)
* V50W/R56L/F105W -> nd (0 of 3 replicates; controls 0 of 9)
* V50P/G61L/R100G -> nd (0 of 3 replicates; controls 0 of 9)
* V50A/F59I/Y60Q -> nd (0 of 3 replicates; controls 0 of 9)
* L29C/V50C/G55K -> nd (0 of 3 replicates; controls 2 of 9)
* I34Y/V50K/Y52Q -> nd (0 of 3 replicates; controls 1 of 9)
* Y32E/V50K/D54R -> nd (0 of 3 replicates; controls 0 of 9)
* T28D/I34P/V50A -> nd (0 of 3 replicates; controls 0 of 9)
* S35I/V50Y -> nd (0 of 3 replicates; controls 0 of 9)
* V50C/S107W -> nd (0 of 3 replicates; controls 2 of 9)

The first 4 entries again:

* V50M/I51L/G55D: 380 nM (1 of 3 replicates; controls 2 of 9)
* F27G/V50L/T104D: 980 nM (1 of 3 replicates; controls 0 of 9)
* V50Q/S53E/D62A: 1.2 µM (1 of 3 replicates; controls 2 of 9)
* G26D/V50N/K65I: 1.8 µM (1 of 3 replicates; controls 1 of 9)